Usually Emax stands for the maximal effect, on the per cent scale that the assay sets. As a reminder, the EC50 is the concentration that produces a half-maximal response. Higher therefore signals a need for much substance.

The structures appear in SMILES notation.

For one test, the target named is T1, CRF1R (Homo sapiens, UniProt P34998).
T1 sequence (P34998 24-415): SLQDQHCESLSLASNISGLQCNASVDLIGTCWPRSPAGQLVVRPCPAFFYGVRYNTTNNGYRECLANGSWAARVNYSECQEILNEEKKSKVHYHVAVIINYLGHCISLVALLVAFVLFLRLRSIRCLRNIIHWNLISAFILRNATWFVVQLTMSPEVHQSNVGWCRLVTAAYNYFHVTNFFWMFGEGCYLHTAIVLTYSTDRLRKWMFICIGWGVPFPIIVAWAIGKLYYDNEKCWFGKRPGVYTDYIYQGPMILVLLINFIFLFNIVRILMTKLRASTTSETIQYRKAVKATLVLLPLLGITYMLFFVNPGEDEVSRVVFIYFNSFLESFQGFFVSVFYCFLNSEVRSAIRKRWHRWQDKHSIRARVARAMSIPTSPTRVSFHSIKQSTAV
Put plainly: CRF1R agonist activation (EC50 / Emax), called comparative CRF binding. To be noted: for Emax: read-out: CRF1R Emax. Format: cell-based. The procedure, abridged: (§1)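 Agonism at each human CRF receptor subtype is inferred from increased cAMP relative to vehicle, using cells expressing that subtype and either lysate cAMP measurement or a cAMP response element reporter.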

In a further test the target is T2, CRF2R (Homo sapiens, UniProt Q13324).
T2 sequence (Q13324 1-411): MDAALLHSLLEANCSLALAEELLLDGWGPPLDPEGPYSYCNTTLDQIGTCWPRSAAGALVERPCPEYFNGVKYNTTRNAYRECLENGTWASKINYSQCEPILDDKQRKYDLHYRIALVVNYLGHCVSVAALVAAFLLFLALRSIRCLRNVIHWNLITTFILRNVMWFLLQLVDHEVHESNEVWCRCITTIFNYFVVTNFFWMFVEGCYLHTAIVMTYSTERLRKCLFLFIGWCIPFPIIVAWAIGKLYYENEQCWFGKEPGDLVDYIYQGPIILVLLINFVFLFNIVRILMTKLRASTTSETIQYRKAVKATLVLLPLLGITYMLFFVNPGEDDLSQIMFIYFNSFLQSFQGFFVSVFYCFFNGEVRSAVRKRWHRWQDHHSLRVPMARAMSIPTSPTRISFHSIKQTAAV
Put plainly: CRF2R agonist activation (EC50 / Emax), called comparative CRF binding. Format: cell-based. Particulars: for Emax: read-out: CRF2R Emax. The procedure, abridged:
as §1

`CC[C@H](C)[C@H](NC(=O)[C@@H](NC(=O)[C@H](CC(=O)O)NC(=O)[C@H](CC(C)C)NC(=O)[C@H](CC(C)C)NC(=O)[C@H](CC(C)C)NC(=O)[C@H](CCCNC(=N)N)NC(=O)[C@H](CC(N)=O)NC(=O)[C@H](CC(N)=O)NC(=O)[C@H](C)NC(=O)[C@H](C)NC(=O)[C@H](CCC(N)=O)NC(=O)[C@H](CCC(N)=O)NC(=O)[C@H](CCCCN)NC(=O)[C@H](CCC(=O)O)NC(=O)[C@H](CCCCN)NC(=O)[C@H](CCC(=O)O)NC(=O)[C@H](CCC(N)=O)NC(=O)[C@H](CCCCN)NC(=O)[C@H](CCC(=O)O)NC(=O)[C@@H](NC(=O)[C@H](CCC(=O)O)NC(=O)[C@@H](NC(=O)[C@H](CCSC)NC(=O)[C@H](CCCCN)NC(=O)[C@H](CCCNC(=N)N)NC(=O)[C@H](CC(C)C)NC(=O)[C@H](CC(C)C)NC(=O)CNC(=O)[C@@H](NC(=O)[C@H](CO)NC(=O)[C@H](CC(C)C)NC(=O)[C@H](CC(=O)O)NC(=O)[C@@H](NC(=O)[C@H](CO)NC(=O)[C@@H](NC(=O)[C@@H]1CCCN1C(=O)[C@@H]1CCCN1C(=O)CNC(=O)[C@@H]1CCC(=O)N1)[C@@H](C)CC)[C@@H](C)CC)[C@@H](C)CC)[C@@H](C)CC)[C@@H](C)CC)[C@@H](C)O)C(N)=O` [compound 25]: the maximal effect (Emax) at CRF1R was determined as 92.3%; at CRF2R, 81.9%.
In the same order, the values of `CC[C@H](C)[C@H](NC(=O)[C@@H](NC(=O)[C@H](CC(=O)O)NC(=O)[C@H](CC(C)C)NC(=O)[C@H](CC(C)C)NC(=O)[C@H](CC(C)C)NC(=O)[C@H](CCCNC(=N)N)NC(=O)[C@H](CC(N)=O)NC(=O)[C@H](CC(N)=O)NC(=O)[C@H](C)NC(=O)[C@H](C)NC(=O)[C@H](CCC(N)=O)NC(=O)[C@H](CCC(N)=O)NC(=O)[C@H](CCCCN)NC(=O)[C@H](CCC(=O)O)NC(=O)[C@H](CCCCN)NC(=O)[C@H](CCC(=O)O)NC(=O)[C@H](CCC(N)=O)NC(=O)[C@H](CCCCN)NC(=O)[C@H](CCC(=O)O)NC(=O)[C@@H](NC(=O)[C@H](CCC(=O)O)NC(=O)[C@@H](NC(=O)[C@H](CC(C)C)NC(=O)[C@@H](NC(=O)[C@H](CCCNC(=N)N)NC(=O)[C@H](CC(C)C)NC(=O)[C@H](CC(C)C)NC(=O)[C@H](CCC(N)=O)NC(=O)[C@H](Cc1ccccc1)NC(=O)[C@@H]1CCCN1C(=O)[C@H](CC(C)C)NC(=O)[C@H](CC(=O)O)NC(=O)[C@@H](NC(=O)[C@H](CO)NC(=O)[C@@H](NC(=O)[C@@H]1CCCN1C(=O)[C@@H]1CCCN1C(=O)CNC(=O)[C@@H]1CCC(=O)N1)[C@@H](C)CC)[C@@H](C)CC)[C@@H](C)CC)[C@@H](C)CC)[C@@H](C)CC)[C@@H](C)O)C(N)=O` [compound 255] are 84% and 100%.
For the compound `CC[C@H](C)[C@H](NC(=O)[C@H](CCCNC(=N)N)NC(=O)[C@H](C)NC(=O)[C@H](CC(N)=O)NC(=O)[C@@H](NC(=O)[C@@H](NC(=O)[C@H](C)NC(=O)[C@H](CCC(N)=O)NC(=O)[C@H](CCC(N)=O)NC(=O)[C@H](CCCCN)NC(=O)[C@H](CCC(=O)O)NC(=O)[C@H](CCCCN)NC(=O)[C@H](CCC(=O)O)NC(=O)[C@H](CCC(N)=O)NC(=O)[C@H](CCCCN)NC(=O)[C@H](CCC(=O)O)NC(=O)[C@@H](NC(=O)[C@H](CCC(=O)O)NC(=O)[C@@H](NC(=O)[C@H](CCSC)NC(=O)[C@H](CCCCN)NC(=O)[C@H](CCCNC(=N)N)NC(=O)[C@H](CC(C)C)NC(=O)[C@H](CC(C)C)NC(=O)[C@H](CCC(N)=O)NC(=O)[C@H](Cc1ccccc1)NC(=O)[C@@H]1CCCN1C(=O)[C@H](CC(C)C)NC(=O)[C@H](CC(=O)O)NC(=O)[C@@H](NC(=O)[C@H](CO)NC(=O)[C@@H](NC(=O)[C@@H]1CCCN1C(=O)[C@@H]1CCCN1C(=O)CNC(=O)[C@@H]1CCC(=O)N1)[C@@H](C)CC)[C@@H](C)CC)[C@@H](C)CC)[C@@H](C)CC)[C@@H](C)O)[C@@H](C)O)C(=O)N[C@@H](CC(C)C)C(=O)N[C@@H](C)C(=O)N[C@@H](CCCNC(=N)N)C(=O)N[C@H](C(N)=O)C(C)C` [compound 148], the Emax at CRF1R was 100%; on CRF2R, 51.5%.
Take `CC[C@H](C)[C@H](NC(=O)[C@H](CCCNC(=N)N)NC(=O)[C@H](C)NC(=O)[C@H](CC(C)C)NC(=O)[C@H](CC(C)C)NC(=O)[C@H](CCCNC(=N)N)NC(=O)[C@H](C)NC(=O)[C@H](CC(N)=O)NC(=O)[C@H](CC(N)=O)NC(=O)[C@H](C)NC(=O)[C@H](C)NC(=O)[C@H](CCC(N)=O)NC(=O)[C@H](CCC(N)=O)NC(=O)[C@H](CCCCN)NC(=O)[C@H](CCC(=O)O)NC(=O)[C@H](CCCCN)NC(=O)[C@H](CCC(=O)O)NC(=O)[C@H](CCC(N)=O)NC(=O)[C@H](CCCCN)NC(=O)[C@H](CCC(=O)O)NC(=O)[C@@H](NC(=O)[C@H](CCC(=O)O)NC(=O)[C@@H](NC(=O)[C@H](CCSC)NC(=O)[C@H](CCCCN)NC(=O)[C@H](CCCNC(=N)N)NC(=O)[C@H](CC(C)C)NC(=O)[C@H](CC(C)C)NC(=O)[C@H](Cc1c[nH]c2ccccc12)NC(=O)[C@H](Cc1ccc(O)cc1)NC(=O)[C@@H]1CCCN1C(=O)[C@H](CC(C)C)NC(=O)[C@H](CC(=O)O)NC(=O)[C@@H](NC(=O)[C@H](CO)NC(=O)[C@@H](NC(=O)[C@@H]1CCCN1C(=O)[C@@H]1CCCN1C(=O)CNC(=O)[C@@H]1CCC(=O)N1)[C@@H](C)CC)[C@@H](C)CC)[C@@H](C)CC)[C@@H](C)CC)C(N)=O` [compound 289]: the values for the EC50 on CRF1R (CRF1R EC50) and on CRF2R were at least 1000 nM and 12.2 nM, respectively. Besides, the maximal response (Emax) worked out at 69.5% at CRF1R and 97.3% on CRF2R.
In the case of `CC[C@H](C)[C@H](NC(=O)[C@@H](NC(=O)[C@H](CC(=O)O)NC(=O)[C@H](CC(C)C)NC(=O)[C@H](CC(C)C)NC(=O)[C@H](CC(C)C)NC(=O)[C@H](C)NC(=O)[C@H](CC(N)=O)NC(=O)[C@H](CC(N)=O)NC(=O)[C@H](C)NC(=O)[C@H](C)NC(=O)[C@H](CCC(N)=O)NC(=O)[C@H](CCC(N)=O)NC(=O)[C@H](CCCCN)NC(=O)[C@H](CCC(=O)O)NC(=O)[C@H](CCCCN)NC(=O)[C@H](CCC(=O)O)NC(=O)[C@H](CCC(N)=O)NC(=O)[C@H](CCCCN)NC(=O)[C@H](CCC(=O)O)NC(=O)[C@@H](NC(=O)[C@H](CCC(=O)O)NC(=O)[C@@H](NC(=O)[C@H](CCSC)NC(=O)[C@H](CCCCN)NC(=O)[C@H](CCCNC(=N)N)NC(=O)[C@H](CC(C)C)NC(=O)[C@H](CC(C)C)NC(=O)[C@H](Cc1ccc(O)cc1)NC(=O)[C@@H](NC(=O)[C@@H]1CCCN1C(=O)[C@H](CC(C)C)NC(=O)[C@H](CC(=O)O)NC(=O)[C@@H](NC(=O)[C@H](CO)NC(=O)[C@@H](NC(=O)[C@@H]1CCCN1C(=O)[C@@H]1CCCN1C(=O)CNC(=O)[C@@H]1CCC(=O)N1)[C@@H](C)CC)[C@@H](C)CC)[C@@H](C)CC)[C@@H](C)CC)[C@@H](C)CC)[C@@H](C)O)C(N)=O` [compound 236], the maximal effect (Emax) on CRF1R is 15%; on CRF2R, 97%.
The corresponding values for `CC[C@H](C)[C@H](NC(=O)[C@@H](NC(=O)[C@H](CC(=O)O)NC(=O)[C@H](CC(C)C)NC(=O)[C@H](CC(C)C)NC(=O)[C@H](CC(C)C)NC(=O)[C@H](CCCNC(=N)N)NC(=O)[C@H](CC(N)=O)NC(=O)[C@H](CC(N)=O)NC(=O)[C@H](C)NC(=O)[C@H](C)NC(=O)[C@H](CCC(N)=O)NC(=O)[C@H](CCC(N)=O)NC(=O)[C@H](CCCCN)NC(=O)[C@H](CCC(=O)O)NC(=O)[C@H](CCCCN)NC(=O)[C@H](CCC(=O)O)NC(=O)[C@H](CCC(N)=O)NC(=O)[C@H](CCCCN)NC(=O)[C@H](CCC(=O)O)NC(=O)[C@@H](NC(=O)[C@H](CCC(=O)O)NC(=O)[C@@H](NC(=O)[C@H](CCSC)NC(=O)[C@H](CCCCN)NC(=O)[C@H](CCCNC(=N)N)NC(=O)[C@H](CC(C)C)NC(=O)[C@H](CC(C)C)NC(=O)[C@H](Cc1ccc(O)cc1)NC(=O)[C@H](Cc1c[nH]c2ccccc12)NC(=O)[C@@H]1CCCN1C(=O)[C@H](CC(C)C)NC(=O)[C@H](CC(=O)O)NC(=O)[C@@H](NC(=O)[C@H](CO)NC(=O)[C@@H](NC(=O)[C@@H]1CCCN1C(=O)[C@@H]1CCCN1C(=O)CNC(=O)[C@@H]1CCC(=O)N1)[C@@H](C)CC)[C@@H](C)CC)[C@@H](C)CC)[C@@H](C)CC)[C@@H](C)O)C(N)=O` [compound 55] are 92% and 95%.

Source of the values: patent US6936585B2, “Corticotropin releasing factor 2 receptor agonists” (priority 2002, dated 2005).
